This note sets out measurements from patent US4743541A, “Luminescent substrate preparation and its use in specific binding assays” (priority 1985, dated 1988).

For this experiment, the target named is T1, horseradish peroxidase (HRP) (Armoracia rusticana, UniProt P00433).
T1 sequence (P00433 31-353): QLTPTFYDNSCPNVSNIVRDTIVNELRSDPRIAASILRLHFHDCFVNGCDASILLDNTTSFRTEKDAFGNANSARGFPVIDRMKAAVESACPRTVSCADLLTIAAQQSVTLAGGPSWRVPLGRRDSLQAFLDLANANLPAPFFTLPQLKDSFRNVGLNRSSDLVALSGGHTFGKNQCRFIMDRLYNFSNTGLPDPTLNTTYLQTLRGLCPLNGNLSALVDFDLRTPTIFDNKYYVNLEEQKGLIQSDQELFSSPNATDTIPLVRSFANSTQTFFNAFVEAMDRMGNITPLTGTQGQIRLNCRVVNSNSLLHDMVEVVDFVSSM
Conditions: for Uniformity of light emission over time after initiation of the reaction: catalyzed luminol oxidation reaction. On the procedure: A standardized test procedure for measuring luminol light output has been established. To 0.5 ml of 50 mM borate buffer, pH 9.4, are added 0.5 ml of 40 mM luminol in 45 mM NaOH, pH 11.0; 0.5 ml of 4 mM hydrogen peroxide in 0.01M phosphate buffered saline (PBS), pH 7.0; 0.4 ml of deionized water; and 0.1 ml of 200 mU/ml horseradish peroxidase (HRP) to yield a final 2.0 ml volume containing; 10 mM luminol; 1 mM H2 O2; 12.5 mM borate buffer, pH 9.4; and 20 mU HRP in an aqueous solution having a final pH of 9.4. The enzyme HRP is added last, the solution mixed and relative intensity readings taken on an Ames Fluorocolorimeter (Miles Labs, Inc., Elkhart, IN) at various time points from 1 minute to 2 hours.

[1] abbreviates: 5 min after initiation of reaction.
Setting [2] is: 10 min after initiation of reaction.
[3] abbreviates: 20 min after initiation of reaction.
Where [4] appears, read: 30 min after initiation of reaction.
[5] abbreviates: 40 min after initiation of reaction.
Where [6] appears, read: 50 min after initiation of reaction.
The mark [7] stands for this setting: 60 min after initiation of reaction.
[8] abbreviates: 70 min after initiation of reaction.
The mark [9] stands for this setting: 80 min after initiation of reaction.
[10] abbreviates: 90 min after initiation of reaction.
Setting [11] is: 100 min after initiation of reaction.
[12] abbreviates: 110 min after initiation of reaction.
Setting [13] is: 120 min after initiation of reaction.
Where [14] appears, read: 10 mM luminol, 1 mM H2O2, 20 mU HRP, pH 9.4, Ames Fluorocolorimeter, time point not stated.

Where two headings read alike, the source gives them in different places.

For `Nc1cccc2c(=O)[nH][nH]c(=O)c12` [Activated Luminol], the “Luminescent Intensity Units” value worked out at 1.046 (10 mM luminol, 1 mM H2O2, 20 mU HRP, pH 9.4, Ames Fluorocolorimeter, time point not stated, listed as Fourth crystallization); 1.02 under setting [1]; 0.95 under setting [2]; 0.95 under setting [3]; 0.96 under setting [4]; 0.97 under setting [5]. The “Luminescent Intensity Units” value reads like this: under setting [6], 0.98; under setting [7], 0.98; under setting [8], 0.98; under setting [9], 0.98; under setting [10], 0.97; under setting [11], 0.97. The “Luminescent Intensity Units” value is, setting by setting: under setting [12], 0.96; under setting [13], 0.96. Moreover, the “Uniformity of light emission over time after initiation of the reaction” value is, setting by setting: (listed as luminol preparation) “does not substantially decrease”; (listed as luminol subjected to four repetitions of the treatment sequence) “substantially uniform unit light intensity from about 5 minutes to about 120 minutes”. The “Unit light output compared with commercially available, untreated luminol” value (relative to untreated commercial luminol, listed as activated luminol preparation) is reported as “multiplied by a factor of at least about ten”.
Consider `Nc1cccc2c(=O)[nH][nH]c(=O)c12` [Commercial Luminol, 5-amino-2,3-dihydro-1,4-phthalazinedione, reference compound], for which the “Luminescent Intensity Units” value runs as follows: under setting [14], 0.016; under setting [1], 0.013; under setting [2], 0.012; under setting [3], 0.011; under setting [4], 0.011; under setting [5], 0.010. Besides, the “Luminescent Intensity Units” value runs as follows: under setting [6], 0.008; under setting [7], 0.007; under setting [8], 0.006; under setting [9], 0.005; under setting [10], 0.005; under setting [11], 0.005. In addition, the “Luminescent Intensity Units” value reads like this: under setting [12], 0.005; under setting [13], 0.005. For the same compound, the “Uniformity of light emission over time after initiation of the reaction” value (listed as untreated luminol) was “substantial decrease in light emission over time”.
With `Nc1cccc2c(=O)[nH][nH]c(=O)c12` [First crystallization], the “Luminescent Intensity Units” value under setting [14] was determined as 0.029.
Still for that read-out and setting: the result for `Nc1cccc2c(=O)[nH][nH]c(=O)c12` [Second crystallization] reads 0.622; that for `Nc1cccc2c(=O)[nH][nH]c(=O)c12` [Third crystallization], 1.036.
